RAD54 branch: inhibitors of human RAD54 branch migration; Q92698; RAD54 Holliday junction branch migration, FAM/BHQ fluorescence; inhibition, % at 10.4 µM; 360,000 tested, 0.14% active; AID 602329;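 active = mean normalized replicate activity at least 40 and at least half of replicates scoring 40 or more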;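 also: 0% = median of neutral control wells and 100% = median of positive control wells; inhibitors cause a drop in the FAM fluorescence signal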
INS-1E GSIS act: GLuc luminescence reporter in INS-1E cells, primary screen for activators of glucose-dependent secretion of insulin; INS-1E GLuc reporter insulin secretion, 2-3 h; activation, % at 16.6 µM; 370,000 tested, 0.61% active;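 active = lowest replicate activation of at least 40%, so every replicate reaches that level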;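 also: 0% = median of neutral control wells and 100% = median of IBMX positive control wells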
Yeast UUG start: modulators of start codon recognition fidelity in yeast; AID 602363; activity score, % at 18.7 µM; S. cerevisiae UUG-firefly luciferase reporter, luminescence/redox ratio; actives 0.13% (n = 350,000);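 active = replicate mean at a twofold rise or more, about +100% in these data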;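 note: firefly luciferase made from a UUG start codon reports start codon fidelity; reporter light over untreated wells divided by growth signal over untreated wells; some hits fall short of that in this replicate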
Casp6 inh: caspase-6 (human) enzyme inhibition. P55212. purified caspase-6, Z-VEID-R110 cleavage fluorescence. inhibition, % at 12.5 µM. 350,000 tested, 0.53% active;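 active = mean inhibition across replicates at least about 35%, with every replicate also reaching that limit, limit read from the data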;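 also: 0% = median of neutral control wells and 100% = no fluorescence left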
RAD52 anneal inh: blocks human RAD52 DNA annealing | P43351 | recombinant RAD52 DNA annealing, FRET fluorescence | inhibition, % at 18.7 µM | 360,000 tested, 0.46% active | AID 651710;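 active = every replicate showing at least 50% inhibition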
PglD inh: blocks C. jejuni PglD acetyltransferase activity. purified PglD enzyme, DTNB colorimetric CoA detection. inhibition, % at 12.5 µM. 360,000 tested, 0.098% active. AID 602405; in the data active = inhibition above about 16%, passing the limit was not always enough
* marks the source's active call; other numbers are inactive results; . = no result given; ! = not active in a repeat. A selection: hits, their analogues and other compounds. The true share with any hit is near 1.5%.

Start of the data: the first 3 entries, ahead of the listing:
no.	Molecule	RAD54 branch	INS-1E GSIS act	Yeast UUG start
1	CC(=O)OC1[C@H](Oc2c(O)c(C)c3c4c2[C@@H](C)CC[C@@H]4[C@@H](C)C[C@@H]3C=C(C)C)OC[C@@H](O)[C@@H]1O (some centres not stated)	-4	.	-5
2	CC(C)=C[C@H]1C[C@H](C)[C@H]2CC[C@H](C)c3c(O[C@@H]4OC[C@@H](O)[C@H](O)C4O)c(O)c(C)c1c32 (some centres not stated)	-4	122*	-1
3	COc1ccc(NS(=O)(=O)c2cc(NC(=O)[C@H](C)NC(N)=O)ccc2N2CCCC2)cc1	6	.	-2

no.	Casp6 inh	RAD52 anneal inh	PglD inh
1	1	-10	-1
2	0	-10	2
3	44*	-22	-5

The list itself, previewed entries included:
no.	Molecule	RAD54 branch	INS-1E GSIS act	Yeast UUG start
1	CC(=O)OC1[C@H](Oc2c(O)c(C)c3c4c2[C@@H](C)CC[C@@H]4[C@@H](C)C[C@@H]3C=C(C)C)OC[C@@H](O)[C@@H]1O (some centres not stated)	-4	.	-5
2	CC(C)=C[C@H]1C[C@H](C)[C@H]2CC[C@H](C)c3c(O[C@@H]4OC[C@@H](O)[C@H](O)C4O)c(O)c(C)c1c32 (some centres not stated)	-4	122*	-1
3	COc1ccc(NS(=O)(=O)c2cc(NC(=O)[C@H](C)NC(N)=O)ccc2N2CCCC2)cc1	6	.	-2
4	COc1ccccc1NS(=O)(=O)c1cc(NC(=O)C(C)NC(N)=O)ccc1N1CCCC1 (configuration not stated)	-1	-1	-5
5	O=C(CSC1=Nc2ccccc2C2=NC(c3ccccc3)C(=O)N12)NC1CCCCC1 (configuration not stated)	0	.	-15
6	COc1ccc(OC)c2c1C(=O)C(Cl)=C(Cl)C2=O	4	58*	-38
7	COc1ccc(OC)c2c1C(=O)c1ccccc1C2=O	.	34	.
8	CCN(Cc1cnn(C)c1)Cc1nc(Cc2ccccc2Cl)no1	.	-6	.
9	COCCn1c(-c2ccc3ccccc3c2)nc2c1c(=O)[nH]c(=O)n2CC(C)C	-2	48*	-18
10	COCCn1c(-c2ccsc2)nc2c1c(=O)[nH]c(=O)n2CC(C)C	-4	.	-2

no.	Casp6 inh	RAD52 anneal inh	PglD inh
1	1	-10	-1
2	0	-10	2
3	44*	-22	-5
4	2	0	0
5	.	.	-6
6	9	-10	3
7	.	.	.
8	-2	-2	.
9	1	-14	0
10	.	.	1

no.	Molecule	RAD54 branch	INS-1E GSIS act	Yeast UUG start
11	O=C(Nc1ccc2oc(-c3cccnc3)nc2c1)c1ccc2c(c1)OCCO2	.	43*	.
12	Cc1cccnc1NC(=O)c1ccc(S(=O)(=O)N2CCCCC2)cc1	.	41*	.
13	CCCOC(=O)Nc1ccc(S(=O)(=O)Nc2ncccn2)cc1	7	54*	-14
14	CCOC(=O)C(=O)Nc1ccc(S(=O)(=O)Nc2ncccn2)cc1	11	16	-16
15	Cc1ccc(S(=O)(=O)N2CCCCC2)cc1C(=O)Nc1ccc(S(=O)(=O)Nc2ncccn2)cc1	8	11	-4
16	O=C(Nc1ccc(S(=O)(=O)Nc2ncccn2)cc1)c1ccc(S(=O)(=O)N2CCCC2)cc1	.	-1	.
17	CC(Oc1cccc(Cl)c1)C(=O)N1CCN(c2ncccn2)CC1 (configuration not stated)	1	.	-9
18	CN(C)S(=O)(=O)Oc1ccsc1C(=O)Nc1cccc(Cl)c1Cl	4	-17	-1
19	CCn1c(=O)n(CC)c2cc(NC(=O)C(C)c3ccccc3)c(Br)cc21 (configuration not stated)	-10	-29	-4
20	C=C(C)CN1CCN(c2ccc(N3C(=O)CCCC3=O)cc2[N+](=O)[O-])CC1	2	50*	-20

no.	Casp6 inh	RAD52 anneal inh	PglD inh
11	.	.	.
12	-4	1	.
13	-3	-18	-1
14	.	.	-14
15	51*	1	-5
16	1	-98	.
17	1	-18	-1
18	.	.	-2
19	1	-2	4
20	1	-10	-2

no.	Molecule	RAD54 branch	INS-1E GSIS act	Yeast UUG start
21	COc1ccccc1N1CCN(c2ccc(N3C(=O)CCC3=O)cc2[N+](=O)[O-])CC1	3	-9	-11
22	Cc1c(NC(=O)C2CCCN2S(=O)(=O)c2cccc3nsnc23)cccc1C(=O)O (configuration not stated)	3	9	-15
23	O=C(c1ccc(F)cc1)N1C[C@@H]2N[C@H](C1)C2c1ccc(/C=C/c2ccccc2)cc1 (some centres not stated)	.	119*!	.
24	O=C(C1CCOCC1)N1C[C@@H]2N[C@H](C1)C2c1ccc(/C=C/c2ccccc2)cc1 (some centres not stated)	.	2	.
25	O=C(Nc1ccccc1)N1C[C@@H]2N[C@H](C1)[C@@H]2c1ccc(/C=C/c2ccccc2)cc1	.	13	.
26	O=C(C1CCCC1)N1C[C@@H]2N[C@H](C1)C2c1ccc(/C=C/c2ccccc2)cc1 (some centres not stated)	.	-5	.
27	O=C(CC1C(=O)NCCN1Cc1ccccc1)NCCN1CCCCC1=O (configuration not stated)	-1	-1	7
28	COc1ccc(CCNC(=O)COC(=O)c2cc(OC)c(OC)cc2OC)cc1OC	2	2	1
29	O=C1C(=Cc2cccn2-c2ccccc2)C(=O)c2ccccc21	-12	72*	-3
30	CSc1nc(NS(=O)(=O)c2cc(C)c(Cl)cc2Cl)nn1C	-18	18	-26

no.	Casp6 inh	RAD52 anneal inh	PglD inh
21	-1	-7	3
22	2	-20	5
23	0	65*	.
24	.	.	.
25	0	72*	.
26	-3	58*	.
27	-2	-16	7
28	1	-19	-4
29	.	.	6
30	-2	-6	-4

no.	Molecule	RAD54 branch	INS-1E GSIS act	Yeast UUG start
31	Cc1ccc(C)c(N(CC(=O)NC2CCCCC2)C(=O)c2csnn2)c1	-13	-7	-9
32	CC(C)CN1C(=O)C(=O)N(CC(=O)Nc2cc(Cl)ccc2Oc2ccccc2)C1=O	.	.	.
33	Cc1ccc(-c2cc(-c3ccc(F)cc3)nc(N)c2C#N)o1	-14	.	-1
34	N#Cc1c(-c2ccncc2)cc(-c2ccc(F)cc2)nc1N	0	49*	-12
35	COc1ccccc1-c1ccc([C@H]2[C@H](CO)N[C@@H]2C#N)cc1	5	5	.
36	CC1(C)CC(=O)C=C(c2ccccc2-c2ccc(S(C)(=O)=O)cc2)C1=O	0	49*	2
37	C/C(CC(=O)Nc1cc(C)ccn1)=N\NC(=O)c1cccc(C)c1	.	6	.
38	C/C(CC(=O)Nc1cc(C)ccn1)=N\NC(=O)c1cccc(C)c1O	8	-42	-44
39	O=C(C[C@H]1C=C[C@H](NC(=O)C2CC2)[C@H](CO)O1)Nc1nccs1	-7	15	-17
40	O=C(C[C@@H]1C=C[C@H](NC(=O)C2CC2)[C@H](CO)O1)Nc1nccs1	-7	-10	-12

no.	Casp6 inh	RAD52 anneal inh	PglD inh
31	3	-4	0
32	-8	-16	.
33	.	.	-2
34	-4	-35	4
35	3	-9	-4
36	0	-17	-7
37	2	-12	.
38	53*	1	3
39	16	-4	2
40	83*	4	-2

Taken from above:
In Yeast UUG start, no. 14 is entered as -16
In INS-1E GSIS act, no. 37 is entered as 6
In PglD inh, no. 15 is entered as -5
In RAD54 branch, no. 10 is entered as -4

The listing continues:
no.	Molecule	RAD54 branch	INS-1E GSIS act	Yeast UUG start
41	Cc1ccc(NC(=O)C2CCCN(C(=O)c3ccc(Cl)cc3)C2)cc1 (configuration not stated)	.	-47	.
42	COc1ccc2c(c1OC)C(=O)N1c3ccccc3COC21 (configuration not stated)	0	.	-6
43	COc1ccc2c(c1OC)C(=O)N1c3ccccc3SC21 (configuration not stated)	-5	115*	-4
44	COc1ccc(C2CC(=O)C(c3ccc(C)cc3)=CN2Cc2ccccc2)cc1 (configuration not stated)	.	159*	.
45	COc1ccccc1N(Cc1ccccc1)S(=O)(=O)c1cccc(C(=O)Nc2ccccn2)c1	-3	-18	0
46	COc1ccc(O)c(CN2CCC(n3nccc3NC(=O)C3CCCC3)CC2)c1	10	6	2

no.	Casp6 inh	RAD52 anneal inh	PglD inh
41	2	-9	.
42	.	.	-4
43	.	.	-9
44	1	-6	.
45	39*	-3	-4
46	-2	-8	5
